Laboratory results: US20030148264A1, “Phage displayed PDZ domain ligands” (GENENTECH, INC., priority 2001, published 2003)
Read-outs that look alike come from different tables or passages of the source.

Target: T1, MAGI 3 PDZ2 (Homo sapiens, UniProt Q5TCQ9)
T1 sequence (Q5TCQ9 584-707 isoform Q5TCQ9-2): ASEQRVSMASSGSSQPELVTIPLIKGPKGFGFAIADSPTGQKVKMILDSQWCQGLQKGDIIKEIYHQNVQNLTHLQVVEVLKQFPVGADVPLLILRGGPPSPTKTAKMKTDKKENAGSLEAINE
Test: Competition ELISA, peptide blocking PDZ domain binding to immobilized peptide
Set-up: made in house; host or cells: E. coli
From the text: Many methods are known and can be used to identify the binding affinities of PDZ domain binding ligands (e.g. peptides, proteins, small mollecules, etc.); for example, binding affinities can be determined as IC50 values using competition ELISAs. The IC50 value is defined as the concentration of ligand which blocks 50% of PDZ domain binding to a ligand. For example, in solid phase assays, assay plates may be prepared by coating microwell plates (preferably treated to efficiently absorb protein) with neutravidin, avidin or streptavidin. Non-specific binding sites are then blocked through addition of a solution of bovine serum albumin (BSA) or other proteins (for example, nonfat milk) and then washed, preferably with a buffer containing a detergent, such as Tween-20. A biotinylated known PDZ-domain ligand (for example, the phage peptides or cognate protein as fusions with GST or other such molecule to facilitate purification and detection) is prepared and bound to the plate. Serial delutions of the ligand to be tested with a PDZ domain polypeptide arc prepared and contacted with the bound ligand. The plate coated with the immobilized ligandis washed before adding each binding reaction to the wells and briefly incubated. After further washing, the binding reactions are detected, often with an antibody recognizing the non-PDZ fusion partner and a labeled (such as horseradish peroxidase (HRP), alkaline phosphatase (AP), or a fluorescent tag such as fluorescein) secondary antibody recognizing the primary antibody. The plates are then developed with the appropriate substrate (depending on the label) and the signal quantified, such as using a spectrophotometric plate reader. The absorption signal may be fit to a binding curve using a least squares fit. Thus the ability of the various ligands to inhibit PDZ domain from binding a known PDZ-domain ligand can be measured.
Prokaryotic: The ERBIN PDZ domain (aa. 1217-1371 of SEQ ID NO:201) or MAGI-3 PDZ 2 (aa. 584-707 of SEQ ID NO:200) were cloned into the EcoR 1/Not 1 or BamH 1/Not 1 sites of pGEX 6P-1 and pGEX 4T-3 E. coli expression vectors (Pharmacia) respectively. Expression and affinity purification of E coli expressed GST-proteins was performed as recommended by the manufacturer (Pharmacia).
Peptides corresponding to the selected sequences were synthesized and assayed for binding (Table 2). […] The data also confirmed that the minimal tetrapeptide selectants from the PDZ2 sort bind PDZ2 with high affinity. […] It appears that this large difference in binding affinity is attributable to the residue at P(−1), which is a Trp in the selected peptide as opposed to a Lys in PTEN/MMAC (compare HTQITWV with HTQITKV (SEQ ID NO:220), Table 2; The IC50 values are the concentrations of peptide that blocked 50% of PDZ domain binding to immobilized peptide in an ELISA).

[1] = MAGI 3 PDZ2, concentration of peptide that blocked 50% of PDZ domain binding to immobilized peptide in an ELISA, read-out: IC50 (μM) PDZ2

Compound `CC(C)[C@H](NC(=O)[C@H](Cc1c[nH]c2ccccc12)NC(=O)[C@H](CO)NC(=O)[C@H](C)N)C(=O)O` [ASWV] has an IC50 [1] of 35 µM.
`CC(C)[C@H](NC(=O)[C@H](Cc1c[nH]c2ccccc12)NC(=O)[C@H](C)NC(=O)[C@@H](N)CS)C(=O)O` [CAWV] showed an IC50 [1] of 7.3 µM.
Work on `CC(C)[C@H](NC(=O)[C@H](C)NC(=O)[C@H](CO)NC(=O)[C@@H](N)CS)C(=O)O` [CSAV] yielded an IC50 [1] of 200 µM.
Work on `C[C@H](NC(=O)[C@H](Cc1c[nH]c2ccccc12)NC(=O)[C@H](CO)NC(=O)[C@@H](N)CS)C(=O)O` [CSWA] yielded an IC50 [1] of 400 µM.
Work on `CC(C)[C@H](NC(=O)[C@H](Cc1c[nH]c2ccccc12)NC(=O)[C@H](CO)NC(=O)[C@@H](N)CS)C(=O)O` [CSWV] yielded an IC50 [1] of 1.4 µM and an IC50 (MAGI 3 PDZ2 domain, read-out: IC50) of 1 µM.
For `CC(C)[C@H](N)C(=O)N[C@H](C(=O)N[C@@H](Cc1c[nH]c2ccccc12)C(=O)N[C@H](C(=O)O)C(C)C)[C@@H](C)O` [VTWV], the IC50 [1] was 4 µM.
